# Target: T1, VMAT2 expressed by β-cells of the endocrine pancreas (Rattus norvegicus, UniProt Q01827)
# Chains of the proteins cited; added tags and fusions are not shown.
# UniProt Q01827, whole entry: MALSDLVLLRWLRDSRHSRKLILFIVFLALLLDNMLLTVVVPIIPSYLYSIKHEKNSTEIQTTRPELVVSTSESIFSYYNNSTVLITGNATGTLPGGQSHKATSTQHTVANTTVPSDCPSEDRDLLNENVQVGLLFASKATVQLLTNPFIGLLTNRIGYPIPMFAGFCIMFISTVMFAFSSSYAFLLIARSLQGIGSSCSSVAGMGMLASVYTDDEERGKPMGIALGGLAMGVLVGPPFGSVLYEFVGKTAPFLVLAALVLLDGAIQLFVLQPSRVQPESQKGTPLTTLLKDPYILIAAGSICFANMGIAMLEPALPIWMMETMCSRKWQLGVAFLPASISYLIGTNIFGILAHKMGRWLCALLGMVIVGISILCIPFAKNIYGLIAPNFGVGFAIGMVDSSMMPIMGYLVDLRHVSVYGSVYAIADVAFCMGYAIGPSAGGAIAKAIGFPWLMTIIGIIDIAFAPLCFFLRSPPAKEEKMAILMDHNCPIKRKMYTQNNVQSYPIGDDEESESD
# T1 construct: The inventors next targeted VMAT2 expressed by β-cells of the endocrine pancreas with [11C]; DTBZ; from tissue; host or cells: pancreas (beta cells of the islets) of living Lewis rats, normal and STZ-induced diabetic
# Test: PET imaging with [11C]DTBZ of normal and STZ induced diabetic Lewis rats
# Format: in vivo
smiles,measurement,setting,value
"COc1cc2c(cc1O[11CH3])CCN1CC(CC(C)C)C(O)CC21 (centres unmarked) [[11C]DTBZ, [11C] dihydrotetrabenazine]",reduction of [11C]DTBZ uptake within the region of interest following STZ treatment,"Lewis rats, relative to the total activity in the field, about 300 μCi (+)-α-[11C]DTBZ",20-40%
same,VMAT2 density in pancreata from [11C]DTBZ PET scans,STZ diabetic animals relative to pre-treatment levels and other control animals,"reduced, but not completely ablated"

# — US20090202428A1, “Use of Dtbz for Imaging Endocrine Pancreas and Beta Cell Mass In Type 1 Diabetes” (priority 2005, published 2009)
